Target: FKBP12 (Homo sapiens, UniProt P62942)
Test: Ki test procedure: inhibition of peptidyl-prolyl isomerase (rotamase) activity, chymotrypsin-coupled assay
Format: biochemical
Conditions: apparent Ki
From the text: The compounds used in the pharmaceutical compositions have an affinity for the FK506 binding protein, particularly FKBP12. The inhibition of the prolyl peptidyl cis-trans isomerase activity of FKBP may be measured as an indicator of this affinity.
Inhibition of the peptidyl-prolyl isomerase (rotamase) activity of the compounds used in the pharmaceutical compositions can be evaluated by known methods described in the literature (Harding et al., Nature, 1989, 341:758-760; Holt et al. J. Am. Chem. Soc., 115:9923-9938). These values are obtained as apparent Ki's and are presented for representative compounds in TABLE III.
The cis-trans isomerization of an alanine-proline bond in a model substrate, N-succinyl-Ala-Ala-Pro-Phe-p-nitroanilide, is monitored spectrophotometrically in a chymotrypsin-coupled assay, which releases para-nitroanilide from the trans form of the substrate. The inhibition of this reaction caused by the addition of different concentrations of inhibitor is determined, and the data is analyzed as a change in first-order rate constant as a function of inhibitor concentration to yield the apparent Ki values.
In a plastic cuvette are added […] of ice cold assay buffer (25 mM HEPES, pH 7.8, 100 mM NaCl), 10 mL of FKBP (2.5 mM in 10 mM Tris-Cl pH 7.5, 100 mM NaCl, 1 mM dithiothreitol), 25 mL of chymotrypsin (50 mg/ml in 1 mM HCl) and […] of test compound at various concentrations in dimethyl sulfoxide. The reaction is initiated by the addition of 5 mL of substrate (succinyl-Ala-Phe-Pro-Phe-para-nitroanilide, 5 mg/mL in 2.35 mM LiCl in trifluoroethanol).
The absorbance at 390 nm versus time is monitored for 90 seconds using a spectrophotometer and the rate constants are determined from the absorbance versus time data files.

Chains of the proteins cited; added tags and fusions are not shown.
UniProt P62942, whole entry, species assumed: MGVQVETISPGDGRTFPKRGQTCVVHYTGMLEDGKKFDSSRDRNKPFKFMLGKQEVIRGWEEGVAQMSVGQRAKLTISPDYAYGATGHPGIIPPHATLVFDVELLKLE

Question: COc1cc(C(=O)C(=O)N2CCCC[C@H]2C(=O)OCc2cccc(Oc3ccccc3)c2)cc(OC)c1OC [Compound 22] was tested. Which Ki did it give?
Answer: 18 nM

Question: Which Ki does the source give for COC(=O)C(=O)N1CCCC[C@H]1C(=O)OCCCCC1CCCCC1 [Compound 17] here?
Answer: 6000 nM

Question: With COc1cc(C(=O)C(=O)N2CCCC[C@H]2C(=O)OCCCCC2CCCCC2)cc(OC)c1OC [Compound 21] as the compound, how does the Ki read?
Answer: 40 nM

Source: patent publication EP1083874B1, “Use of a compound for the preparation of a medicament for treating alopecia or promoting hair growth in an animal” (GPI NIL Holdings, Inc., priority 1998, dated 1999)
